Measurements published in patent US20090291064A1 (priority 2008, published 2009).

System: CYP2
Protocol: Several CYP450 enzymatic activities were investigated in PICM-19H cells to determine the presence and inducible nature of major CYP450 isoforms. […] Cells were washed with PBS and appropriate inducer medium was added for 48 h prior to experimentation.
CYP450 activity was assessed in T25 cultures of PICM-19H cells that were grown for 3 wk post-passage. T25 cultures of APH or HepG2 C3A cells were tested after 3 d of primary culture and at 1 wk post-passage or near confluency, respectively. […] After the initial induction, cells were washed and given a non-fluorescent substrate for CYP1A1, CYP1A2, CYP2, or CYP3A (7-ERF, 7-MRF, MFC, and BFC, respectively). […] Medium samples were collected, centrifuged to remove cell debris (14,000×g, 2 min) and frozen at −80° C. until analyzed. […] Fluorescence was determined in an HTS 7000 plate reader; excitation/emission filter pairs were 530/590 and 410/510 for resorufin and 7-HFC, respectively. To determine relative conjugation activity, fluorescence was also determined directly without incubating first in β-glucuronidase/arylsulphatase. Since conjugated forms of resorufin and 7-HFC are non-fluorescent, the difference between the direct and indirect fluorescence measurements represents the amount of product which had been modified by conjugating enzymes.

MFCD activity induction (in words): equally induced
SMILES: CO[C@H]1/C=C/O[C@@]2(C)Oc3c(C)c(O)c4c(O)c(c(/C=N/N5CCN(C)CC5)c(O)c4c3C2=O)NC(=O)/C(C)=C\C=C\[C@H](C)[C@H](O)[C@@H](C)[C@@H](O)[C@@H](C)[C@H](OC(C)=O)[C@@H]1C [Rif, rifampicin]
